# Ab-91 heavy chain CDR variants: yeast mating affinities

Target peptide (SARS-CoV-2 spike, HR2 region): PDVDLGDISGINAS

Ab-91 is the parent antibody, in scFv form: VL, then a (GGGGS)3 linker, then VH. The light chain is unchanged in all variants.
VL: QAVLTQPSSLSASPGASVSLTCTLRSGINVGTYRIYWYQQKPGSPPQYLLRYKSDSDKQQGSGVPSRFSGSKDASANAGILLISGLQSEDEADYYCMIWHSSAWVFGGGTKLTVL
VH: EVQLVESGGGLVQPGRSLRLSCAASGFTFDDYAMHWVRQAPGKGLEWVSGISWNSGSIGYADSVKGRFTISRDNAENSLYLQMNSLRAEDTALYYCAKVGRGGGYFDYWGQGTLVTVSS

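Variants in AAYL51 differ from the parent at up to three CDR positions; double and triple changes were sampled at random. In AlphaSeq, yeast of one mating type display the scFv and yeast of the other type display the target. Pairs that bind mate more often; barcode pairs of the diploids are counted by sequencing. Scores were corrected for input abundance and mapped to Kd with protein pairs of known affinity run in the same pool. Each pool was mated in three replicate cultures.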

Substitutions are numbered in sequence along the VH above, starting at 1 (not Kabat). All variants listed here change G50 of the VH, counted from its first residue. Affinities are written as log10 Kd with Kd in nM; a lower number is a better binder. A mean of the replicates is given; it leaves out those without a signal. "no signal" marks a missing value. The strain was present, yet no cells mated with the target were sequenced in any replicate, which points to weak or no binding. As a blank, each scFv also met three strains without target: over library AAYL51, 21% of these pairings were detected, typically at 4.54 and seldom below 3.26.

The variant G26P/G50W/I58L gave no signal (0 of 3 replicates). With G50Y/S52K/S63H the result was no signal (0 of 3 replicates). With G50R/W53M/G59Y the result was 5.06 (1 of 3 replicates). For G50Q/K65N/D107P, the assay gave 5.00 (1 of 3 replicates). The variant F27Q/G50M/G103A gave no signal (0 of 3 replicates). For G50V/I58R/F106Y, the assay gave 5.31 (2 of 3 replicates). The variant M34G/G50W/Y108V gave 5.50 (2 of 3 replicates).

With D31N/G50P/D62Y the result was 5.55 (3 of 3 replicates). The variant T28R/G50T/D107N gave 5.23 (2 of 3 replicates). With G50P/G100F/D107N the result was no signal (0 of 3 replicates). The variant G50F/S52L/G59P gave 4.04 (1 of 3 replicates). The variant G50D/S55Q/Y60M showed no signal (0 of 3 replicates). The variant G26W/G50A/G56N showed 4.40 (1 of 3 replicates). The variant T28R/G50D showed 3.95 (1 of 3 replicates).

The variant G50F/S55T/G102S gave no signal (0 of 3 replicates). The variant G50Y/Y108H showed 3.76 (2 of 3 replicates). The variant G50I/S55K/V99K showed no signal (0 of 3 replicates). For F27T/G50T/R101S, the assay gave 6.03 (1 of 3 replicates). The variant G50I gave no signal (0 of 3 replicates). The variant G50R/G56M/G59H showed no signal (0 of 3 replicates). For T28E/G50V/Y108E, the assay gave no signal (0 of 3 replicates).

With D31G/G50W/W53G the result was no signal (0 of 3 replicates). With Y32T/G50P/G56C the result was no signal (0 of 3 replicates). For G50D/N54H/Y105R, the assay gave 5.04 (2 of 3 replicates). The variant G50K/N54I/K65R gave no signal (0 of 3 replicates). The variant Y32C/G50Q/R101Y gave 5.38 (1 of 3 replicates). For G50M/S63M/R101M, the assay gave no signal (0 of 3 replicates). The variant H35G/G50I/D62M gave no signal (0 of 3 replicates).

For H35K/G50K/G103F, the assay gave no signal (0 of 3 replicates). The variant G26P/G50L/I58V gave 5.29 (2 of 3 replicates).

Reference: Engelhart et al. 2022, doi:10.1038/s41597-022-01779-4. File: FLAb, binding data.